The chains behind the UniProt entries cited, without tags or fusion partners.
UniProt P05067, whole entry: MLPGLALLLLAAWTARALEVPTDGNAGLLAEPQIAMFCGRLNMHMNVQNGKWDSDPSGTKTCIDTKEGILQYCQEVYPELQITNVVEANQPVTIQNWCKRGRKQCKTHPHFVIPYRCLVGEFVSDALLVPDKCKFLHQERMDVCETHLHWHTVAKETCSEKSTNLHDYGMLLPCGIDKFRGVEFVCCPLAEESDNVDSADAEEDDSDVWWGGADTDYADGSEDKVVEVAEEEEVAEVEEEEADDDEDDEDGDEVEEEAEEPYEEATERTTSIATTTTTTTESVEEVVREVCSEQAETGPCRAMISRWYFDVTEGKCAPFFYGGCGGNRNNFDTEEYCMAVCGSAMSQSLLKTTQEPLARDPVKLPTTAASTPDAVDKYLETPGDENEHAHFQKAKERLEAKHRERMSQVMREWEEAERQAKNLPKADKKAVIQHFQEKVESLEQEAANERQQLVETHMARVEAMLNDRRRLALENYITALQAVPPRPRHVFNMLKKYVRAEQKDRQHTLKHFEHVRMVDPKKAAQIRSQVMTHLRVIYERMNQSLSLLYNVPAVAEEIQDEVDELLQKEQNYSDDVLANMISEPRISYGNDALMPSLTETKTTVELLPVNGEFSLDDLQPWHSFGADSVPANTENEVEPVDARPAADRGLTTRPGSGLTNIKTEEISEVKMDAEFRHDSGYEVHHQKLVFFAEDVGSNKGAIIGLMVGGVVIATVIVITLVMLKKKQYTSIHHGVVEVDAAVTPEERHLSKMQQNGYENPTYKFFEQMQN

In ChEMBL document CHEMBL1926592, “Synthesis and in vitro evaluation of fluorinated styryl benzazoles as amyloid-probes” (Bioorg Med Chem, 2011):

Target: Amyloid-beta precursor protein (Homo sapiens, UniProt P05067)
Test: Binding affinity to human amyloid beta (1 to 42) fibril by fluorescence intensity assay
In short: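 Fibrils grown from human insulin (3 mg/mL, Tris-HCl 50 mM pH 3), E. coli-expressed human α-syn (3 mg/mL, pH 7.4) or Aβ(1–42) (0.5 mg/ml, 1% NH4OH). Fibril level taken as supernatant protein depletion. Fixed fibrils (3.5–11.35) titrated with ligand (DMSO stock diluted into 50 mM Tris-HCl pH 7.4). Plate-reader intensity read at each ligand's maximal excitation/emission wavelengths, dye blanks subtracted. Kd from single-site saturation fit.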

- Kd: 2.56 µM⁻¹
Compound: Cc1ccc2c(c1)sc(-c1ccc(N(C)C)cc1)[n+]2C.[Cl-] [THIOFLAVIN T]
